The values that follow are results of earlier work, collected in publication PMC9318694 (Molecules, 2022).

By UniProt entry, the sequences of proteins in these tests, tags left out. Where a name states a change or a piece, a line headed by the entry shows the natural chain unless it says otherwise.
UniProt P14416, whole entry: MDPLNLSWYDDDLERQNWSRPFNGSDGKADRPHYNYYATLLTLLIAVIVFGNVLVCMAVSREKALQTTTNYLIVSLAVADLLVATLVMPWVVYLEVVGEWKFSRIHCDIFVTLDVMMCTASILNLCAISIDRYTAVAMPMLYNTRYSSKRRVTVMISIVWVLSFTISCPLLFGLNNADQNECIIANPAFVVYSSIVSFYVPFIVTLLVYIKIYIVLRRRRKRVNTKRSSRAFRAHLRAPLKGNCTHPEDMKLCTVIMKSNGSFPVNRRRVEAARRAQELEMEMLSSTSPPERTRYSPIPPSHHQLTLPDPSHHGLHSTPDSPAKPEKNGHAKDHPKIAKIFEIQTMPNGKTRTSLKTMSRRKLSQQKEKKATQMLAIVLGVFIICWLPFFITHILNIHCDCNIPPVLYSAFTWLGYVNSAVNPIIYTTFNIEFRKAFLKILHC

Read-outs that look alike come from different tables or passages of the source.

Usually Ki stands for a measure of affinity in units of concentration, obtained from inhibition or displacement.

The target in this data set is D2R (Homo sapiens, UniProt P14416). The following applies: cited from earlier work.

`CCCN(CCC)C1CCc2c(O)cccc2C1` (centres unmarked) [SC18, 5-OH-DPAT]: the Ki is 58.8 nM. With `O=c1[nH]c2ccc(OCCCCN3CCC(c4cccc(Cl)c4Cl)CC3)cc2[nH]1` [SC4, 5-(4-(4-(2,3-dichlorophenyl)piperidin-1-yl)butoxy)-1,3-dihydro-2H-benzo[d]imidazol-2-one], the Ki (Table S1, data set of actives, radio-ligand binding assays, ref ChEMBL, [50]-[70], read-out: KI) was 11 nM.
